# Test results as given in PubChem BioAssay AID2554 (Johns Hopkins Ion Channel Center, 2010).
# The list shows a part of the results, in another mix than the full data. Some results for these compounds are left out of this collection, so the calls shown say nothing about other tests. Activity calls are given as the source filed them.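 Rule for the calls: active = primary screen hit whose fluorescence ratio, in both repeats, exceeds the weak agonist control mean by 3 SD; inactive = the rest.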
# Tested on: TRPC4 (transient receptor potential cation channel C4 beta), mouse
# Assay: potentiation of DAMGO EC20 TRPC4 response – cell-based, second round, Fluo-4, HEK293 TRPC4beta/mu-opioid, 1 µM, confirmation (AID 2554)
# Conditions: DAMGO EC20, Fluo-4 calcium flux, at 1 µM
row,Structure (SMILES),outcome
1,CN(C)c1ccc(C(=O)NCC2(N(C)C)CCCCC2)cc1,inactive
